In patent US11376302B2, “Methods for treating depression and major depressive disorder” (priority 2017, dated 2022):
“Also recorded” adds a separate entry of the source.

Assays:
Assay type in all cases: in vivo, mouse
eEF2 = assay: Western blot of eEF2 phosphorylation (pT56) in brain tissue after injection
Procedure: (§1) Sample preparation: Brains were quickly excised; hippocampus and cortex were dissected, and snap frozen in liquid nitrogen. Tissues were transferred from the liquid nitrogen to a glass-Teflon homogenizer and homogenized with a buffer containing 10 mM HEPES pH 7.4, 2 mM EDTA, 2 mM EGTA, 0.5 mM DTT (all from Sigma), 1× phosphatase inhibitor mixture (Sigma/Thermo Scientific), and 1× protease inhibitor mixture (Sigma/Thermo Scientific). Equal volumes of 2×SDS sample buffer were immediately added to the homogenates, and samples were boiled for 10 min. Samples were centrifuged at 12,000 g for 15 minutes and the supernatants were transferred to 3 aliquots. Each aliquot was thawed on ice and used for blotting only once or twice.
(§2) Prepared samples in SDS sample buffer were subjected to 7.5% or 4-20% gradient gel (Bio-Rad pre-cast gels) SDS-PAGE (electrophoresed on Bio-Rad PAGE apparatus) and Western blot analysis. Each sample was loaded with the same amount of total protein (7-15 μg; according to antibody linearity). After transfer to a 0.2 μm pore size nitrocellulose or polyvinyidine fluoride membranes, the blots were blocked with 4% bovine serum albumin (BSA) or 4% non-fat dry milk in tris-buffered saline plus 0.5% tween-20 (TBST) at room temperature for 1 hr. They were then incubated overnight with the suitable primary antibodies at 4° C. The blots were then subjected to three 10 min washing steps in TBST, after which they were incubated with the corresponding HRP-conjugated secondary antibodies for lh at room temperature followed by three 10 min washing steps with TB ST. Immunodetection was performed with the enhanced-chemiluminescence EZ-ECL kit (Biological Industries, Israel). The immunoblots were quantified with a CCD camera and Quantity One software (Bio-Rad). Each immunoblot was measured relative to the background and normalized to the endogenous controls (β-actin). Phosphorylation levels were calculated as the ratio between the readings from the antibody directed against the phosphoproteins and those from the antibody directed against the phosphorylation state-independent forms of the proteins.

CaMKIIα = assay: Western blot of CaMKIIα phosphorylation (pT286, pT305) and total level in brain tissue after injection; conditions: for auto-active phosphorylation of CaMKIIα (pT286): 40 min after ketamine injection; for auto-active phosphorylation pT286CaMKIIa / auto-inhibitory phosphorylation pT305CaMKIIa: 1 hour after ketamine injection; for total CaMKIIα levels: any time point examined after ketamine
Procedure: as §1, §2

GluA1 = assay: Western blot of GluA1 expression in brain tissue after injection; conditions: for GluA1 expression levels: C57BL/6 mice; for GluA1 expression in the hippocampus: 24 hours
Procedure: as §1, §2

[1] = tested on: global protein synthesis in the hippocampus; assay: SUnSET measurement of global protein synthesis in brain tissue after injection; conditions: for global protein synthesis (puromycin incorporation): after ketamine
Procedure: Protein synthesis was measured by the SUnSET method. After pharmacological manipulation, mice were sacrificed by cervical dislocation, brains were removed, and the hippocampi were rapidly dissected, immersed in liquid nitrogen, and stored at −80° C. until further use. Hippocampi were homogenized using 20 strokes of a pre-chilled glass homogenizer with 600 μl of lysis buffer containing 50 mM Tris, pH 7.8, 240 mM KCl, 10 mM MgCl2, 250 mM D-sucrose, 2% Triton X-100, 20 μg/ml emetine, 5 mM DTT, 100 U/ml Rnasin (Promega), and protease inhibitor mixture without EDTA (Roche). Samples were centrifuged for 5 min at 16,100 g at 4° C. and supernatant was incubated with 100 µg/ml puromycin for 10 min at 4° C. An equal volume of 2×SDS sample buffer (10% glycerol, 5% β-mercaptoethanol, 4% SDS, 120 mM Tris-HCl, pH 6.8) was added to the samples and then boiled for 10 min at 100° C. Protein concentrations were determined using the BCA protein assay (Thermo), and samples were stored at −20° C. until further use. Puromycin incorporation was detected by western blotting using 12D10 antibody for puromycin (1:1000, Millipore).

[2] = hippocampus, 3 hours after ketamine, TatCN21 or control 10 minutes before

CNC1(c2ccccc2Cl)CCCCC1=O (stereo not drawn) [ketamine]
phosphorylated eEF2 (peEF2) (eEF2; 20-30 minutes after ketamine administration): strongly decreased | phosphorylated eEF2 (peEF2) (eEF2; 40 minutes after ketamine administration): returns to its baseline levels | phosphorylated eEF2 (peEF2) (eEF2; WT mice (eEF2K littermates), hippocampal lysates, 30 minutes after ketamine): significantly lower | eEF2 phosphorylation (eEF2; hippocampus, 20 min after ketamine administration, C57BL/6 mice): significantly reduced | pT286CaMKIIα (CaMKIIα; WT animals, 30 minutes after ketamine): higher | pT305 phosphorylation of CaMKIIα (CaMKIIα; WT littermates, 30 minutes after ketamine): significantly higher | auto-inhibitory phosphorylation of CaMKIIα (pT305) (CaMKIIα; cortex, 20 min after ketamine, C57BL/6 mice): significant induction; also recorded: significantly increased | auto-active phosphorylation of CaMKIIα (pT286) (CaMKIIα; cortex, C57BL/6 mice): slightly increased | auto-inhibitory phosphorylation of CaMKIIα (pT305) (CaMKIIα; cortex, 40 minute time point after ketamine): returned to baseline | auto-active phosphorylation pT286CaMKIIa (CaMKIIα; cortex): significantly increase | auto-inhibitory phosphorylation pT305CaMKIIa (CaMKIIα; cortex): reduced | total CaMKIIα levels (CaMKIIα; cortex): did not show any difference; also recorded: no difference | pT286 and pT305 phosphorylation levels of CaMKIIα (CaMKIIα; eEF2K-KO mice, after ketamine): no additive changes | auto-inhibitory phosphorylation of CaMKIIα (pT305) (CaMKIIα; hippocampus, 20 min after ketamine, C57BL/6 mice): significant induction; also recorded: significantly increased | auto-active phosphorylation of CaMKIIα (pT286) (CaMKIIα; hippocampus, C57BL/6 mice): slightly increased | auto-inhibitory phosphorylation of CaMKIIα (pT305) (CaMKIIα; hippocampus, 40 minute time point after ketamine): returned to baseline | auto-active phosphorylation pT286CaMKIIa (CaMKIIα; hippocampus): significantly increase | auto-inhibitory phosphorylation pT305CaMKIIa (CaMKIIα; hippocampus): reduced | CaMKIIa phosphorylation of pT286 (CaMKIIα; [2]): trend towards higher phosphorylation | any other protein examined, or their phosphorylation status (CaMKIIα; [2]): no significant difference | total CaMKIIα levels (CaMKIIα; hippocampus): did not show any difference; also recorded: no difference | GluA1 expression levels (GluA1; hippocampus, 20 minutes after ketamine): increased expression levels | GluA1 expression levels (GluA1; hippocampus, 40 minutes after ketamine): increased expression levels | GluA1 expression (GluA1; hippocampus, 3 hours after ketamine injection): no significant difference | GluA1 level (GluA1; hippocampus, 24 hours following ketamine administration): markedly higher | GluA1 expression in the hippocampus (GluA1; ketamine 5 mg/kg b.w.): induced GluA1 expression | GluA1 expression in the hippocampus (GluA1; ketamine 10 mg/kg b.w.): induced GluA1 expression | global protein synthesis ([1]; 30 minutes after ketamine injection): significantly increased | global protein synthesis (puromycin incorporation) ([1]; WT mice): increased protein synthesis | global protein synthesis (puromycin incorporation) ([1]; eEF2K-KO mice): did not lead to further increase
